The structures appear in SMILES notation.

The chains behind the UniProt entries cited, without tags or fusion partners. Residues count along the entry.
UniProt P07339, 65-412: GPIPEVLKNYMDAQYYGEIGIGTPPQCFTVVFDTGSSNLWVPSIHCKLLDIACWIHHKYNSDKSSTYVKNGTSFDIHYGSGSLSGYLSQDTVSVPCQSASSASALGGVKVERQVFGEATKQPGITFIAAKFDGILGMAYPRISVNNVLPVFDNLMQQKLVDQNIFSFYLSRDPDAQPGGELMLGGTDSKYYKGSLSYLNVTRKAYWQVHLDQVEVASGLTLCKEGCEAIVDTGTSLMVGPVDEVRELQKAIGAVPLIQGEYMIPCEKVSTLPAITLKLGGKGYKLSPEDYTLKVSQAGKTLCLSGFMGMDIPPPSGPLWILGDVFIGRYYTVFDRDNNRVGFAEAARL

For this test, the target named is Cathepsin-D protease (Homo sapiens, UniProt P07339). Description: Cathepsin-D protease inhibition assay in picowells with bead-released compound and Peptide Q-Fluor substrate. Type of test: biochemical. The settings on record: compound released from 10 μm TentaGel beads by UV (365 nm, 77 J/cm^2) to approximately 13 μM; 30 min, 37° C.

For the compound `CC(C)CC(=O)N[C@H](C(=O)N[C@H](C(=O)N[C@@H](CC(C)C)[C@@H](O)CC(=O)N[C@@H](C)C(=O)N[C@@H](CC(C)C)[C@@H](O)CC(=O)O)C(C)C)C(C)C` [positive control beads, Pepstatin-A], the “Cathepsin-D inhibition (fluorescence of cleaved Peptide Q-Fluor substrate)” value is reported as “strong inhibition”.

These data come from patent US10946383B2, “Oligonucleotide encoded chemical libraries” (Plexium, Inc., priority 2017, dated 2021).
